Data reported in ChEMBL document CHEMBL1649093, “Phthalazinone pyrazoles as potent, selective, and orally bioavailable inhibitors of Aurora-A kinase” (J Med Chem, 2011).

Experiment: Selectivity for Aurora A over Aurora B

Selectivity ratio, > 1000:
Cc1cc(Nc2nn(Cc3ccc([N+](=O)[O-])cc3)c(=O)c3ccccc23)n[nH]1
COc1ccc(-n2nc(Nc3cc(C)[nH]n3)c3ccccc3c2=O)cc1
Cc1cc(Nc2nn(-c3ccc(F)cc3)c(=O)c3ccccc23)n[nH]1
Cc1cc(Nc2nn(CC(C)C)c(=O)c3ccccc23)n[nH]1
Cc1cc(Nc2nn(Cc3cc(F)ccc3F)c(=O)c3ccccc23)n[nH]1
CC(=O)Nc1ccc(Cn2nc(Nc3cc[nH]n3)c3ccccc3c2=O)cc1
Cc1cc(Nc2nn(Cc3cccnc3)c(=O)c3ccccc23)n[nH]1
Cc1cc(Nc2nn(C)c(=O)c3ccccc23)n[nH]1
CC(=O)Nc1ccc(Cn2nc(Nc3cc(C)[nH]n3)c3ccccc3c2=O)cc1
Cc1cc(Nc2nn(Cc3ccncc3)c(=O)c3ccccc23)n[nH]1
COc1ccc(Cn2nc(Nc3cc(C)[nH]n3)c3ccccc3c2=O)cc1
Cc1cc(Nc2nn(Cc3ccc(S(C)(=O)=O)cc3)c(=O)c3ccccc23)n[nH]1
Cc1cc(Nc2nn(Cc3csc(C)n3)c(=O)c3ccccc23)n[nH]1
